# RXFP1 antag: antagonists of human relaxin receptor RXFP1. actives 0.59% (n = 350,000). AID 1259400. Q9HBX9. activity change, negative = inhibition, % at 57.5 µM. HEK293-RXFP1, relaxin-stimulated cAMP HTRF, 30 min; stronger effect = lower value;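 active means activity change of -60% or lower, but not beyond a set lower limit; inconclusive means change between -60% and -40%, or beyond the set limit; inactive means change above -40%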; further: on the % scale 0 is the no-effect control and ±100 the full control effect
# ERG-DNA inh: blocks human ERG Ets domain binding to DNA | fluorescence polarization, His-ERG Ets domain / labelled DNA | P11308 | Potency, µM (highest dose often 76.9 µM), inactives show at the top dose FP activity, negative = inhibition, actives largely listed as inhibitors | actives 0.028% (n = 370,000); active means well fitted inhibition curve with a large enough effect in the polarisation, with a control signal flat; inconclusive means small, poorly fitted or top-dose-only effect, or effect the other way, or a change in a side signal; inactive means no such curve, though single readings can be large or run the other way; the % refers to the polarisation;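 further: polarization taken with two DNA probes labelled with fluorescein and Texas red; potency means the concentration at half of the fitted maximal effect; % of control where 0% means no effect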
#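 His-tagged ERG Ets domain (1 uM in the protein solution; 300mM KCl, 50mM Tris-HCl, 1mM EDTA, 1mM DTT, pH 7.5) received compound, then a probe mix of 5 nM fluorescein-DNA and 100nM Texas-615-DNA. Fluorescence polarization was read for both dyes.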
# RXFP1 agonist: activates the human relaxin receptor RXFP1 | Q9HBX9 | HEK293T-RXFP1 cAMP TR-FRET, 30 min; response scale: percent of porcine relaxin response, buffer zero | Potency, µM (series often up to 57.5 µM), inactives show top-dose activation, most hits filed as activators | actives 0.3% (n = 370,000) | AID 2676; further: potency means the concentration at half of the fitted maximal effect; on the % scale 0 is the no-effect control and ±100 the full control effect; nearly all actives have a fitted effect of over 60% in size
#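 cAMP rise read by TR-FRET after 30 min, 37C compound exposure (up to 58 uM) in RXFP1-transfected HEK293 cells with Ro 20174 present. EC50 from Hill-equation fits, with 29 nM porcine relaxin as 100% and buffer as basal.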
# ASM inhibitor: human S-ASM enzyme inhibition; actives 0.006% (n = 340,000); P17405; placental ASM, HMU-PC fluorogenic substrate, 60 min; Potency, µM (highest dose often 57.5 µM), for the others: at the highest dose activity change, negative = inhibition, hits mostly inhibitors; further: potency means the concentration at half of the fitted maximal effect
#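 Steps: dispense placental human ASM, pin compound, wait 10 min at room temperature, add HMU-PC0 substrate at 9 uM final, incubate 60 min at 37 °C, add stop solution raising pH to 10, read fluorescence.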
# Mito fusion yeast: blocks mitochondrial division or promotes mitochondrial fusion; Potency, µM (top dose mostly 46.1 µM), inactives show top-dose growth rescue (activation), hits mostly activators; actives 0.23% (n = 320,000); AID 485298; S. cerevisiae fusion-defective mutant growth rescue, CellTiterGlo 48 h; further: potency means the concentration at half of the fitted maximal effect; % of control where 0% means no effect; nearly all actives have a fitted effect of over 45% in size
#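 Growth-rescue viability read-out: after 48 h at the non-permissive 37C in glycerol/ethanol YPEG, yeast mitochondrial fusion mutants are measured by CellTiterGlo luminescence; compounds (23 nl pinned per well) restoring growth score as division inhibitors or fusion activators.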
# miR-21 reporter: miR-21 reporter, rising signal. HeLa miR-21 FLuc reporter, luciferase, 48 h. Potency, µM (highest dose often 38.3 µM), for the others: at the highest dose reporter change, positive = more light. 340,000 tested, under 10 active. AID 2288; active = well fitted rising curve with a large enough effect; inconclusive = small, poorly fitted or top-dose-only effect; inactive = no such curve, though single readings can be large or run the other way;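 further: % of control where 0% means no effect; miR-21 action dims this reporter so a rising signal means less miR-21 action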
#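 HeLa cells stably expressing CMV-driven firefly luciferase with a downstream miR-21 binding sequence, endogenously expressing miR-21, were treated with titrations (up to about 40uM final) for 48 hours at 37 degree Celsius. Luciferase luminescence was read after lysis.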
# Numbers without * were called inactive; ? = inconclusive; nt = no result given. The list is not random: actives were taken first. Their share in the collection is about 0.72%. Unless noted, the call rests on the fitted dose curve; in most records, active means well fitted curve in the direction sought with a large enough effect; inconclusive means small, poorly fitted or top-dose-only effect, or another doubt; inactive means no such curve, though single readings can be large; an effect the other way counts as inactive or inconclusive.
SMILES,RXFP1 antag,ERG-DNA inh,RXFP1 agonist,ASM inhibitor,Mito fusion yeast,miR-21 reporter
CC1=NN(c2ccccc2)C(=O)/C1=C\C=C\c1ccccc1,-63*,3%,2%,-19%,-6%,1%
COc1ccc(/C=C2/C(=O)N(c3ccccc3)N=C2C)cc1,-61*,-1%,nt,-5%,nt,nt
C=C(C)Cn1c(-c2ccncc2)n[nH]c1=S,-67*,3%,1%,8%,-3%,2%
O=C(Nc1nc(-c2ccccc2)cs1)C1CCCCN1S(=O)(=O)c1ccc(Cl)cc1 (stereo unspecified),-3,2%,2%,-8%,18µM*,23%
CC(=O)c1ccc(N2C(=O)N(Cc3ccc(F)cc3)c3ccccc3S2(=O)=O)cc1,nt,0%,0%,nt,nt,14%
COc1cc(C2c3c(-c4ccccc4)n[nH]c3C(=O)N2c2ccccc2)ccc1O (stereo unspecified),4,1%,1%,?,-1%,-11%
O=C1c2[nH]nc(-c3ccc(F)cc3)c2C(c2ccccc2F)N1c1ccccc1 (stereo unspecified),-68*,-2%,6%,nt,nt,?
Cc1noc(C)c1CSc1ccccc1C(=O)O,2,-8%,0%,8%,-17%,-5%
Cc1noc(C)c1CSc1ccccc1C(=O)Nc1nccs1,-13,15%,1%,-1%,35µM*,0%
O=C(NOCC1CC1)c1ccc(F)c(F)c1Nc1ccc(I)cc1Cl,-22,nt,nt,nt,nt,nt
O=C1Cc2cc(CCN3CCN(c4nsc5ccccc45)CC3)c(Cl)cc2N1,-107*,nt,4%,nt,-59%,-6%
O=C1Cc2cc(S(=O)(=O)N3CCN(c4ccccc4)CC3)ccc2N1,11,?,5%,-5%,2%,-1%
CC1=C(C)CS(=O)N(S(=O)(=O)c2ccccc2)C1 (stereo unspecified),?,2%,-3%,-3%,0%,9%
O=S(=O)(/N=S1\CC=CCN1S(=O)(=O)c1ccccc1)c1ccccc1 (stereo unspecified),-110*,0%,nt,4%,nt,nt
Cc1ccc(-c2noc(CCC(=O)NCCCN3CCN(c4cccc(Cl)c4)CC3)n2)cc1,-64*,-5%,1%,-5%,-21%,4%
Cc1ccc(-c2noc(CCC(=O)NCCCN3CCN(c4ccc(F)cc4)CC3)n2)cc1,-15,0%,2%,0%,-9%,-2%
CCOC(=O)c1cc(-c2ccccc2)n(CCCC(=O)Nc2cccc(C)c2C)c1C,-28,2%,0%,nt,nt,-1%
COc1cccc(NC(=O)Nc2nc(-c3ccc(OC)c(OC)c3)cs2)c1,-62*,6%,12%,-22%,-2%,?
COc1ccc(-c2csc(NC(C)=O)n2)cc1OC,-1,-6%,3%,-2%,-3%,-28%
C#Cc1ccc(-c2ccccc2F)cc1,9,nt,nt,nt,nt,nt

# Nothing new here: entries from further up.
SMILES,RXFP1 antag,ERG-DNA inh,RXFP1 agonist,ASM inhibitor,Mito fusion yeast,miR-21 reporter
Cc1noc(C)c1CSc1ccccc1C(=O)Nc1nccs1,-13,15%,1%,-1%,35µM*,0%
O=C(NOCC1CC1)c1ccc(F)c(F)c1Nc1ccc(I)cc1Cl,-22,nt,nt,nt,nt,nt
O=C1Cc2cc(CCN3CCN(c4nsc5ccccc45)CC3)c(Cl)cc2N1,-107*,nt,4%,nt,-59%,-6%
O=C1Cc2cc(S(=O)(=O)N3CCN(c4ccccc4)CC3)ccc2N1,11,?,5%,-5%,2%,-1%

# Following part:
SMILES,RXFP1 antag,ERG-DNA inh,RXFP1 agonist,ASM inhibitor,Mito fusion yeast,miR-21 reporter
Cc1cc(C)cc(OC(C)C(=O)Nc2nonc2-c2ccc(Br)cc2)c1 (stereo unspecified),-26,-3%,2%,nt,nt,0%
CCN(CC)CC(=O)OCC(=O)[C@@]1(O)CC[C@H]2[C@@H]3CCC4=CC(=O)CC[C@]4(C)[C@H]3[C@@H](O)C[C@@]21C,-18,nt,nt,nt,nt,nt
Nc1c(O)ccc2c1C(=O)c1ccccc1C2=O,-80*,16%,-8%,-2%,5%,-18%
COc1ccc2c(c1O)C(=O)c1ccccc1C2=O,nt,nt,0%,nt,1%,-9%
Cc1ccc(-c2nnc(Nc3ccc(Br)cc3)c3ccccc23)cc1S(=O)(=O)N1CCN(C)CC1,5,-1%,5%,nt,-5%,-1%
CC(C)CCn1c(NCCc2ccccc2)nc2c1c(=O)n(C)c(=O)n2C,nt,3%,0%,-3%,18µM*,?
Cn1c(=O)c2c(nc(NCCc3ccccc3)n2Cc2ccc(F)cc2)n(C)c1=O,nt,-6%,0%,-11%,23%,18%
